{
  "sequences": {"note": "Amino acid sequences for entries named in this document (tags omitted). A change or cut given only in a name is not applied to a line headed by its entry.", "UniProt Q9UKV0": "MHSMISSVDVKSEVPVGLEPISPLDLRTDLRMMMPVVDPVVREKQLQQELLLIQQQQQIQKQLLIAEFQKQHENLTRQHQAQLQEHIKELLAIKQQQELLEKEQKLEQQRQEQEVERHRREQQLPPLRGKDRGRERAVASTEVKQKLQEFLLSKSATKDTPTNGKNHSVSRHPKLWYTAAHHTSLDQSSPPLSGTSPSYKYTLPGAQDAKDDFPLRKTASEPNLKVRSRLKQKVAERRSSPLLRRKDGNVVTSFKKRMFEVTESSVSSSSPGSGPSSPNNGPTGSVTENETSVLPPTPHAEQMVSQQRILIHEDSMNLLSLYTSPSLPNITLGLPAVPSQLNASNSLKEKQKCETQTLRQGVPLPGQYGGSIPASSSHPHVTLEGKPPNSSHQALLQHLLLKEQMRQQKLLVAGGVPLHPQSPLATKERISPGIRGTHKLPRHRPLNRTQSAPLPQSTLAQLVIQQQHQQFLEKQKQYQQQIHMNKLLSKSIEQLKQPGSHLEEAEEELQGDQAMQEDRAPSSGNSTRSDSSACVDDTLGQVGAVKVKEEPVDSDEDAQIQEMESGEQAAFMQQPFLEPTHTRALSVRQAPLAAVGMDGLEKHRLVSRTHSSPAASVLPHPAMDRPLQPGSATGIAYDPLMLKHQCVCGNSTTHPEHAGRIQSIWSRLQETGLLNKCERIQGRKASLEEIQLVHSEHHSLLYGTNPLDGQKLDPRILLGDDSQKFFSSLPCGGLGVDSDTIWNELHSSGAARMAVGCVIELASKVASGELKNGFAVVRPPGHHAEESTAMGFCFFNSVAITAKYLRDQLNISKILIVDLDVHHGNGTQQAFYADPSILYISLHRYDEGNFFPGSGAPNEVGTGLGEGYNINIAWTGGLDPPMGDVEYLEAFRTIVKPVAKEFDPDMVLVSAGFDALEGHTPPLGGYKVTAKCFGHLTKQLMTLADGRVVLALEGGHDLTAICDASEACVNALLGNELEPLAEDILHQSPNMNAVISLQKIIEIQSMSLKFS", "UniProt Q9UQL6": "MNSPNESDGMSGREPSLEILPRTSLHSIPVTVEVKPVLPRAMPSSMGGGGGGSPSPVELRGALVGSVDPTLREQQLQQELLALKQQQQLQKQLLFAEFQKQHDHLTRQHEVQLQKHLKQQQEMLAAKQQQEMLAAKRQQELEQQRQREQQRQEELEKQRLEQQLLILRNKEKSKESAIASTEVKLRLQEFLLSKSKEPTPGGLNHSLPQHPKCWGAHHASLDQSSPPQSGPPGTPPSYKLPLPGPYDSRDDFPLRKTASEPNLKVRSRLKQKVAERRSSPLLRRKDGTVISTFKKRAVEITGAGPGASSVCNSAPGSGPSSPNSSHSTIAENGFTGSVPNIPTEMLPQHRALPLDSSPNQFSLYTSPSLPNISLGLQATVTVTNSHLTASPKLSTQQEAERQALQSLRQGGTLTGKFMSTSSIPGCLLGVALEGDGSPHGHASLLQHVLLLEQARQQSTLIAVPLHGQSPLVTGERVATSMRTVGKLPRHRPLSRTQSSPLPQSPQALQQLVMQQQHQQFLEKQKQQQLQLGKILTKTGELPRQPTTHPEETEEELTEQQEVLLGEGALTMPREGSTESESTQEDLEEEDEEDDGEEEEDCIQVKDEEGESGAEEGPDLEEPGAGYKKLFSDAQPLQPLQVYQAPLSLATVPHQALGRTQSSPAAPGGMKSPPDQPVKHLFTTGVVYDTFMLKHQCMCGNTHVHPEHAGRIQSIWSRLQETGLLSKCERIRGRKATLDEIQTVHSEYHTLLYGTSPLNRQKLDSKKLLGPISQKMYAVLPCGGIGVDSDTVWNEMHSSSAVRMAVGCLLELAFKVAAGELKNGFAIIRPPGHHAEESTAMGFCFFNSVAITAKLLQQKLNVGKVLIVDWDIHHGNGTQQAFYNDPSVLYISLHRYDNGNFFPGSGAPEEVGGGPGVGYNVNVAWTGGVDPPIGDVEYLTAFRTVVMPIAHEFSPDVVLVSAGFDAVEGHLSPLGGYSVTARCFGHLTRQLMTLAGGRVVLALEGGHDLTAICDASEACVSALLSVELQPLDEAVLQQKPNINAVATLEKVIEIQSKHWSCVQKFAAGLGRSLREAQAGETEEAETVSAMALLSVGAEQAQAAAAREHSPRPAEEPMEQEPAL"},
  "source": "ChEMBL document CHEMBL4396900",
  "about": "“Extending Cross Metathesis To Identify Selective HDAC Inhibitors: Synthesis, Biological Activities, and Modeling” (ACS Med Chem Lett, 2019)",
  "key": {"[1]": {"target": "Histone deacetylase 9 (Homo sapiens, UniProt Q9UKV0)", "assay": "Inhibition of human recombinant HDAC9 using fluorogenic HDAC substrate class 2a measured after 30 mins by fluorimetry assay"}, "[2]": {"target": "Histone deacetylase 5 (Homo sapiens, UniProt Q9UQL6)", "assay": "Inhibition of human recombinant HDAC5 using fluorogenic HDAC substrate class 2a measured after 30 mins by fluorimetry assay"}},
  "data": [
    {"smiles": "CC(/C=C/C(=O)NO)=C\\[C@H](C)C(=O)c1ccc(N(C)C)cc1", "values": [
      {"measurement": "IC50", "setting": "[1]", "result": 5.1, "unit": "µM"},
      {"measurement": "IC50", "setting": "[2]", "result": 1600, "unit": "nM"}
    ]}
  ]
}
